{
  "source": "patent US11090322B2",
  "about": "“Anthracycline disulfide intermediates, antibody-drug conjugates and methods” (priority 2014, dated 2021)",
  "origin": "cited, not measured here",
  "system": "MMTV-HER2 Fo5 transgenic mammary tumors",
  "conditions": "allograft propagated from the Fo5 mmtv transgenic mouse; cited from earlier work",
  "data": [
    {"substance": "HERCEPTIN: humanized anti-HER2 antibody huMAb4D5-8, trastuzumab, tradename HERCEPTIN", "values": [
      {"measurement": "response of Fo5 allograft to therapy", "result": "does not respond to, or responds poorly to"}
    ]}
  ]
}
